Molecular target: T1, serotonin transporter (Rattus norvegicus, UniProt P31652)
T1 construct: frontal cortical membranes prepared from male Sprague-Dawley rats; from tissue; host or cells: frontal cortex membranes of male Sprague-Dawley rats
Test: Serotonin transporter affinity, 3H-paroxetine binding to frontal cortical membranes
Design: species or system Sprague-Dawley rats
Details: 3H-paroxetine 0.1 nM, head also allows % Inh. @.1 µM, read-out: ST (Ki, nM, % Inh. @.1 µM)

The chains behind the UniProt entries cited, without tags or fusion partners.
UniProt P31652, whole entry: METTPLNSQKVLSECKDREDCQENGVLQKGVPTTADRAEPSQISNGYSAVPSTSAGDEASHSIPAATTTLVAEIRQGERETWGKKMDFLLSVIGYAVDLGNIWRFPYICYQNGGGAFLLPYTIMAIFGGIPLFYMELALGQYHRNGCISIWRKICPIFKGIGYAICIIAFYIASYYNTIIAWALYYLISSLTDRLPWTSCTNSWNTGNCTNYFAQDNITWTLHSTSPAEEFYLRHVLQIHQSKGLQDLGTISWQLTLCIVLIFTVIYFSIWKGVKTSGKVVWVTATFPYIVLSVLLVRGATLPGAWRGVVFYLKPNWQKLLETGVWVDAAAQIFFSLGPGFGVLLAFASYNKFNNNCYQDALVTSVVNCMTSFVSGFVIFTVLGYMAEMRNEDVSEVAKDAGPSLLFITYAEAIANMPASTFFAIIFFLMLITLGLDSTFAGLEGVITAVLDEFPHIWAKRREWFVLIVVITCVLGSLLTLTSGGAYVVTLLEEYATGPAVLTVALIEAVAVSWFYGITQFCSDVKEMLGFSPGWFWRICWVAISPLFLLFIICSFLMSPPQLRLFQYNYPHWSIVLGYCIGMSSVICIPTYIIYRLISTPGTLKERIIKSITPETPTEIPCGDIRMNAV

[3-(1H-Indol-3-yl)-propyl]-4-benzyl-3,4-dihydro-2H-benzo[1,4]oxazin-2-yl-methyl)-amine [Example 6]
Ki: 23 nM
